GLP-1R inv ag: acts as inverse agonist at human GLP-1 receptor; actives 1.6% (n = 410,000); Potency, µM (series often up to 38.3 µM), without a hit: at the top dose activity change, negative = inhibition, actives largely listed as inhibitors; HEK293 GLP-1R CRE-luciferase, luminescence, 24 h; GLP-1R form is constitutively active; also: potency is read from the fitted curve at half-maximal effect; % is scaled to controls: 0 for no effect and ±100 for the full control effect; nearly all actives have a fitted effect of over 55% in size
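Stable HEK293 clone (constitutively active GLP-1R + cAMP-response luciferase); 200 cells/uL plated, 12 h pre-culture, compound 24 hr, 37 deg C/5% CO2; detection reagent 12 min RT; luminescence.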
GLP-1R agonist: GLP-1 receptor (human) agonism | P43220 | HEK293 GLP-1R CRE-luciferase, luminescence, 4-6 h; cells express a hypersensitive GLP-1R form | Potency, µM (highest dose often 45.6 µM), inactives show at the top dose activation, usual class: activators | actives 0.007% (n = 380,000) | AID 624172; also: potency is read from the fitted curve at half-maximal effect; % of control where 0% means no effect
miR-21 reporter: miR-21 reporter, rising signal; HeLa miR-21 FLuc reporter, luciferase, 48 h; Potency, µM (titrated, usually from 38.3 µM), without a hit: top-dose reporter change, positive = more light; AID 2288; 340,000 tested, under 10 active; active = well fitted rising curve with a large enough effect; inconclusive = small, poorly fitted or top-dose-only effect; inactive = no such curve, though single readings can be large or run the other way;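 further: % of control where 0% means no effect; miR-21 action dims this reporter so a rising signal means less miR-21 action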
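Compounds were titrated across several concentrations (up to approximately 40 uM) and incubated 48 hours with HeLa miR-21-FLuc reporter cells (miR-21 target sequence downstream of FLuc, endogenous miR-21). Readout was firefly luciferase luminescence after lytic detection reagent.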
GLP1R cytotox: cytotoxic in the GLP-1 receptor inverse agonist counter-screen | HEK293 cAMP-luciferase reporter cells, luminescence, 24 h | Potency, µM (highest dose often 38.3 µM), without a hit: at the highest dose activity change, negative = inhibition, most hits filed as inhibitors | actives 0.13% (n = 410,000) | AID 624418;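 also: loss of luciferase light is scored as toxicity; potency is read from the fitted curve at half-maximal effect; % is scaled to controls: 0 for no effect and ±100 for the full control effect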
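MLSMR compounds, 24 hr on cells at 37 deg C/5% CO2; luminescence after luciferase reagent (12 min RT). Inhibition counted as the undesired cytotoxic outcome.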
PTHR1 ag: PTHR1 (human) receptor agonism | Potency, µM (titrated, usually from 115 µM), for inactives: at the highest dose activation, usual class: activators | actives 0.075% (n = 410,000) | AID 743266 | Q03431 | HEK293 GP2 PTHR1 cells, GloSensor cAMP luminescence, 1 h; also: potency is read from the fitted curve at half-maximal effect; nearly all actives have a fitted effect of over 55% in size
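HEK-293-derived GP2 cells expressing PTHR1 and a GloSensor cAMP reporter, 3,000/well, plated overnight, given luciferin plus IBMX (each 0.5 mM as added) for 1 h at 37 °C, then compound for 1 h at 37 °C. Luminescence was read after 15 min at room temperature.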
Pin1 inhibitor: inhibitors of human Pin1. Q13526. Pin1 FP peptide displacement, HiFluor488, 10 min. Potency, µM (top dose mostly 115 µM), inactives show at the top dose activity, negative = inhibition, usual class: inhibitors. actives 0.009% (n = 390,000). AID 504891; active = well fitted inhibition curve with a large enough effect in the polarisation, with a control signal flat, not every such curve was filed as active; inconclusive = small, poorly fitted or top-dose-only effect, or effect the other way, or a change in a side signal; inactive = no such curve, though single readings can be large or run the other way; the % refers to the polarisation; also: potency is read from the fitted curve at half-maximal effect; % is scaled to controls: 0 for no effect and ±100 for the full control effect
Numbers without * were called inactive; i = inactive; ? = inconclusive; / = no result given; [ ] = dose if it differs, or a comment. Compounds with a hit are over-represented: about 1.7% of the library has one in this group of screens. Unless noted, calls follow the shape of the dose curve; as a rule, active = well fitted curve in the direction sought with a large enough effect; inconclusive = small, poorly fitted or top-dose-only effect, or another doubt; inactive = no such curve, though single readings can be large; an effect the other way counts as inactive or inconclusive.

Field names: A = GLP-1R inv ag; B = GLP-1R agonist; C = miR-21 reporter; D = GLP1R cytotox; E = PTHR1 ag; F = Pin1 inhibitor
> CCc1ccc(N2C(=O)C(Cl)=C(N3CCCCCC3)C2=O)cc1
  A: 10µM*	B: 11%	C: -9%	D: 5%	E: -11%	F: 1%

> CCOC(=O)c1c(/N=C/N(C)C)sc(/C=N/Nc2ccccc2)c1-c1ccccc1Cl
  A: 3.5µM*	B: 10%	C: 20%	D: -7%	E: -11%	F: ?

> COc1ccc(CCNCC(=O)Nc2ccc(C)c(Br)c2)cc1OC
  A: 11µM*	B: -3%	C: -3%	D: -10%	E: -16%	F: -10%

> COc1ccc(CCNCC(=O)Nc2ccc(C)c(S(=O)(=O)N(C)C)c2)cc1OC
  A: 2%	B: 0%	C: 1%	D: -4%	E: 7%	F: 1%

> O=C(CN1C(=O)c2cccc3cccc(c23)C1=O)N1CCCCCC1
  A: 7.9µM*	B: -2%	C: -1%	D: -12%	E: -8%[57.5 µM]	F: -15%

> Cc1ccc(NC(=O)C2CCCN2S(=O)(=O)c2cccc3cccnc23)cc1C (stereo not given)
  A: 9%	B: /	C: 0%	D: -2%	E: 0%	F: 2%

> Cc1sc(NC(=O)c2ccco2)c(CN2CCCCC2)c1C
  A: 6.3µM*	B: 0%	C: -18%	D: 3%	E: -1%[57.5 µM]	F: -8%

> CC(=O)Nc1ccc(OCc2cccc(C3Nc4ccccc4C(=O)N3Cc3ccco3)c2)cc1 (stereo not given)
  A: /	B: /	C: /	D: /	E: /	F: 23%

> C[n+]1cc(C(O)(c2ccccc2)c2ccccc2)n2ccccc21
  A: /	B: /	C: /	D: /	E: /	F: 0%

> O=C(NCc1ccccc1)c1cc2sccc2n1Cc1ccc(F)cc1
  A: 10µM*	B: -3%	C: 6%	D: 3%	E: -35%	F: 8%

> O=C(NCc1ccc(F)cc1)c1cc2sccc2n1Cc1ccc(F)cc1
  A: /	B: /	C: 0%	D: /	E: /	F: /

> Cc1ccc(Oc2c(C(N)=O)cc([N+](=O)[O-])cc2[N+](=O)[O-])cc1
  A: 11µM*	B: -35%	C: ?	D: ?	E: -10%	F: 2%

> Cc1ccc(CNc2ccc([N+](=O)[O-])cc2C(N)=O)cc1
  A: 45%	B: ?	C: /	D: -8%	E: i	F: 2%

> C=C1C=CS(=O)(=O)N(C(C)C(=O)OC)C1 (stereo not given)
  A: /	B: /	C: /	D: /	E: /	F: 5%

> CCOc1ccc2[nH]c(=O)c(CN(Cc3cccs3)Cc3nnnn3C(C)(C)CC)cc2c1
  A: ?	B: 1%	C: 18%	D: 11µM*	E: -9%[57.5 µM]	F: -1%

> CCC(C)(C)n1nnnc1CN(Cc1cccs1)Cc1cc2cc(OC)ccc2[nH]c1=O
  A: 44%	B: -1%	C: 19%	D: ?	E: i	F: 11%

> COc1cccc(N2CC(O)Cn3c2nc2c3c(=O)n(CCCc3ccccc3)c(=O)n2C)c1 (stereo not given)
  A: ?	B: -3%	C: 19%	D: 1%	E: -34%[57.5 µM]	F: -2%

> CCOc1ccc(N2CC(O)Cn3c2nc2c3c(=O)n(CCCc3ccccc3)c(=O)n2C)cc1 (stereo not given)
  A: 5.6µM*	B: 2%	C: 14%	D: -33%	E: i	F: -12%

> CN(C)CCN(Cc1ccco1)C(=O)c1cc2c(s1)-c1ccccc1OC2
  A: -4%	B: /	C: ?	D: -11%	E: ?	F: -1%

> COc1cc(C(=O)Nc2ccc(-c3nc4ccccc4o3)c(O)c2)cc(OC)c1OC
  A: 9%	B: /	C: -9%	D: 14%	E: -4%	F: 1%

> Fc1ccc2cnc(-c3ccccc3)c(-c3ccc(C(F)(F)F)cc3)c2c1
  A: 13µM*	B: 19%	C: /	D: -29%	E: i	F: ?

> Fc1ccc2cnc(-c3ccccc3)c(-c3cc(C(F)(F)F)cc(C(F)(F)F)c3)c2c1
  A: 4.5µM*	B: -4%	C: /	D: -13%	E: -26%	F: 96%

> Fc1ccc2c(-c3cccc(C(F)(F)F)c3)c(-c3ccccc3)ncc2c1
  A: ?	B: 12%	C: /	D: -1%	E: i	F: 25%

> CCCN1CNc2c(c(=O)[nH]c(=S)n2CCc2cc(OC)cc(OC)c2)C1
  A: /	B: /	C: /	D: /	E: /	F: -2%

> O=C(CCc1ccccc1)Nc1ncnc2c1C(c1ccccc1)c1c(ccc3ccccc13)O2 (stereo not given)
  A: /	B: /	C: /	D: /	E: /	F: 50%

> CC1(Cc2cc(Cl)ccc2C(F)(F)F)C(=O)Nc2ccc(-c3ccc(F)c(Cl)c3)cc21 (stereo not given)
  A: ?	B: -26%	C: /	D: 11µM*	E: i	F: /

> CC1(C)S[C@@H]2[C@H](NC(=O)[C@H](N)c3ccccc3)C(=O)N2[C@@H]1C(=O)OCOC(=O)[C@@H]1N2C(=O)C[C@@H]2S(O)(O)C1(C)C
  A: /	B: 0%	C: /	D: /	E: /	F: /

> COc1ccc(N2CCN(CC(O)COc3ccc(C)c(C)c3)CC2)cc1 (stereo not given)
  A: ?	B: -2%	C: -5%	D: -7%	E: -13%	F: 8%

> COc1ccc(N2CCN(CC(O)COc3ccc(C(C)C)c(C)c3)CC2)cc1 (stereo not given)
  A: 13µM*	B: /	C: 15%	D: ?	E: -21%	F: 7%

> Cc1cc(C)cc(OCC(=O)N(Cc2cccs2)c2ccc(Cl)cc2)c1
  A: 10µM*	B: /	C: 10%	D: -7%	E: i	F: -1%

Two of these compounds, reformatted:
molecule: CC1(C)S[C@@H]2[C@H](NC(=O)[C@H](N)c3ccccc3)C(=O)N2[C@@H]1C(=O)OCOC(=O)[C@@H]1N2C(=O)C[C@@H]2S(O)(O)C1(C)C
- GLP-1R inv ag: /
- GLP-1R agonist: 0%
- miR-21 reporter: /
- GLP1R cytotox: /
- PTHR1 ag: /
- Pin1 inhibitor: /

molecule: COc1ccc(N2CCN(CC(O)COc3ccc(C)c(C)c3)CC2)cc1 (stereo not given)
- GLP-1R inv ag: ?
- GLP-1R agonist: -2%
- miR-21 reporter: -5%
- GLP1R cytotox: -7%
- PTHR1 ag: -13%
- Pin1 inhibitor: 8%

Further compounds
Field names: A = GLP-1R inv ag; B = GLP-1R agonist; C = miR-21 reporter; D = GLP1R cytotox; E = PTHR1 ag; F = Pin1 inhibitor
> COc1ccc(N(Cc2cccs2)C(=O)COc2cc(C)c(Cl)c(C)c2)cc1
  A: 8.9µM*	B: /	C: 8%	D: -22%	E: -69%	F: 0%

> CCOC(=O)c1c(-c2ccccc2)csc1NC(=S)NC
  A: -1%	B: 3%	C: -24%	D: ?	E: -10%	F: -2%

> CCOC(=O)c1c(-c2ccccc2)csc1NC(=O)c1cc(-c2cccc(OC)c2)on1
  A: 7%	B: /	C: 3%	D: 2%	E: 40µM*	F: 1%

> CCNC(=S)Nc1scc(-c2ccccc2)c1C(=O)OCC
  A: ?	B: 0%	C: -9%	D: 10µM*	E: -13%	F: 0%

> CCOC(=O)c1c(-c2ccc(C)cc2)csc1NC(=O)c1cc(=O)c2cc(C)ccc2o1
  A: 3%	B: /	C: 1%	D: 1%	E: 4µM*	F: 0%

> CCOC(=O)c1c(-c2ccc(C)cc2)csc1NC(=O)c1cc(=O)c2cc(C)c(C)cc2o1
  A: 15%	B: /	C: 0%	D: -4%	E: -14%	F: -21%

> CCOC(=O)c1c(-c2ccc(-c3ccccc3)cc2)csc1NC(=O)CNCCN(C)C
  A: 10µM*	B: 0%	C: ?	D: -6%	E: i	F: 37%

> Cn1ncc2c(Nc3cccc(Cl)c3)nc(Nc3cccc(Cl)c3)nc21
  A: 11µM*	B: 6%	C: 22%	D: -29%	E: i	F: 2%

> Cn1ncc2c(Nc3ccc(Br)cc3)nc(Nc3ccc(Br)cc3)nc21
  A: ?	B: 0%	C: 17%	D: -15%	E: -1%	F: 11%

> O=C1CCc2cc(S(=O)(=O)Nc3ccc4ccccc4c3)ccc2N1
  A: /	B: /	C: /	D: /	E: /	F: 0%

> CSc1ccccc1NC(=O)CSCc1ccc(C)cc1
  A: 5µM*	B: 10%	C: 6%	D: -28%	E: i	F: 3%

> Cc1ccc(CSCC(=O)Nc2ccccc2C(=O)O)cc1
  A: ?	B: -4%	C: 12%	D: 4%	E: -41%	F: 1%

> CC(Oc1ccc(-c2ccccc2)c(F)c1)c1ccn(S(=O)(=O)c2ccc(F)cc2)n1 (stereo not given)
  A: ?	B: -1%	C: -2%	D: -20%	E: -21%	F: 88%
